Reference: US11084879B2, “Compositions and methods for treating pancreatitis and pain with death receptor agonists” (The Johns Hopkins University, priority 2016, dated 2021)

Test system: activated PSCs
Experiment: Caspase 3/7 activity in culture-activated PSCs
Assay type: cell-based, human
Conditions: PSCs culture activated 7 days; 10^3 ng/mL with Protein G, 3 h
Description: TRAIL induces apoptosis by binding to its cognitive receptors, DR4 and DR5. To investigate whether both TRAIL receptors are necessary to induce apoptosis in activated PSCs, the caspase 3/7 activity (apoptosis markers) was measured by treating activated PSCs with either human anti-DR4 agonistic antibody (mapatumumab) or anti-DR5 agonistic antibody (conatumumab). For DR4 or DR5 specific antibody treatments, PSCs were culture activated for 7 days on 96 well plate (Corning) and sequential concentrations (0, 10^1, 10^2, 10^3 ng/mL) of mapatumumab (human anti-DR4 antibody, Creative Biolabs) or conatumumab (human anti-DR5 antibody, Creative Biolabs) with Protein G (Thermo Fisher Scientific, Waltham, Mass. #21193) were added and incubated for 3 h and the cells tested for caspase activity. Caspase 3/7 activities were measured by caspase3/7 assay kit (Promega) according to the manufacturer's protocol. The luminescence of each sample was measured on a plate reader (Bio-Tek Instruments Inc) with parameters of 1 min lag time and 0.5 sec/well read time (n=4).

conatumumab: human anti-DR5 agonistic antibody (Creative Biolabs)
caspase-3/7 activity: 10.79±1.42 fold
